The source of these data is patent US20130243707A1 (published 2013).

The series in a line: Super-solvent effect (Drug solubilized by combinations of solvent alcohols). Particulars: PG 4 gr, PEG 400 3 gr, EtOH 1 gr, IPA 1.1 gr.

Regarding `CC(C)Cc1ccc(C(C)C(=O)O)cc1` (stereo not shown) [Ibuprofen], the “Super-solvent Effect” value is reported as 36.5%.
